Results from patent US20260285866A1, “MODULATORS OF TRPML, THEIR COMPOSITIONS AND METHODS OF USE” (Caraway Therapeutics, Inc., priority 2024, published 2026).

Amino acid sequences for entries named in this document (tags omitted).
UniProt Q9GZU1, whole entry L15A/L16A/L577A/L578A: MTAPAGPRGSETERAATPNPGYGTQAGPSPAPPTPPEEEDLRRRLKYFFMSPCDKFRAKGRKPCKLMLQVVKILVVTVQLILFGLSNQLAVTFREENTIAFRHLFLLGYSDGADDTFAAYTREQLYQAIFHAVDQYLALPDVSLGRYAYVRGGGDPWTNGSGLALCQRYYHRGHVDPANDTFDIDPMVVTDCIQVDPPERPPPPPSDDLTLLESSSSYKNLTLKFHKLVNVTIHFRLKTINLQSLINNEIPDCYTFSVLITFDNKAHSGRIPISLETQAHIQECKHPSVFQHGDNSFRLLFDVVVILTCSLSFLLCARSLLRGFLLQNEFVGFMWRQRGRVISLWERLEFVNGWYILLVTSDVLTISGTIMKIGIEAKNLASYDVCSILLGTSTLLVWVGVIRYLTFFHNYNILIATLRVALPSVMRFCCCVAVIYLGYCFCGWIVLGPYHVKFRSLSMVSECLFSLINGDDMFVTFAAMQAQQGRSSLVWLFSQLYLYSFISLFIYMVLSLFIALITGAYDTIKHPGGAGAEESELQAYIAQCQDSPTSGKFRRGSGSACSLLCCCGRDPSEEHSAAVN
UniProt Q8IZK6, whole entry: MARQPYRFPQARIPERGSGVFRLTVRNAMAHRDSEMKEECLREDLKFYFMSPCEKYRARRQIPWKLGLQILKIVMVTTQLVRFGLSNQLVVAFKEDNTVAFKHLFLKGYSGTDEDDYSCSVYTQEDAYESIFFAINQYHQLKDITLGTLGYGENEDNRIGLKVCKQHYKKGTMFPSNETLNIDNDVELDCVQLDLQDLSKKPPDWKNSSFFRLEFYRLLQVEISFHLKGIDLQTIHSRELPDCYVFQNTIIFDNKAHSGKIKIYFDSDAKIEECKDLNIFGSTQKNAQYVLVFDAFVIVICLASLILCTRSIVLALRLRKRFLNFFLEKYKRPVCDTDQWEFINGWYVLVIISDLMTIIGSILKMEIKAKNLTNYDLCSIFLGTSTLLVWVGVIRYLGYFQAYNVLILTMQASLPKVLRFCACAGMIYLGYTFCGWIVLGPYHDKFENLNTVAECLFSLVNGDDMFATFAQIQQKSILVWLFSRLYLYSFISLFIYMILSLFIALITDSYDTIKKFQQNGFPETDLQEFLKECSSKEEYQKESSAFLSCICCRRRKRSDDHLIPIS
UniProt Q8TDD5, whole entry: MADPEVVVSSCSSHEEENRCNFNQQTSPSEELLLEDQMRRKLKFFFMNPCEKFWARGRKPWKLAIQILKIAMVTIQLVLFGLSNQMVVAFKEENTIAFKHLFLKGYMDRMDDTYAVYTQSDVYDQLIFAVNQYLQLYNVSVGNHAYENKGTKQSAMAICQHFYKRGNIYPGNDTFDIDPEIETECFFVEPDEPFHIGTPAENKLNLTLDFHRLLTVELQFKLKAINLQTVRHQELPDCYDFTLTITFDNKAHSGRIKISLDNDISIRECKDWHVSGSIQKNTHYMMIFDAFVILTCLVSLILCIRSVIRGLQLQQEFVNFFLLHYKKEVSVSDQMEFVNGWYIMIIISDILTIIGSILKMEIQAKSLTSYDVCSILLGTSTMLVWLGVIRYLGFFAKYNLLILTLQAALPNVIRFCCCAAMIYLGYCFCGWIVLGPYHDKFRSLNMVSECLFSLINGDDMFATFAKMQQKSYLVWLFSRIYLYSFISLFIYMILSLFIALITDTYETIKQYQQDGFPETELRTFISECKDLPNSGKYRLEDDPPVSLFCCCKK

How the values were obtained:
[1] = molecular target: Human TRPML1 (Homo sapiens, UniProt Q9GZU1, L15A/L16A/L577A/L578A); test: Fluorescent TRPML1 assay (Fluo4-AM, HEK-293 Trex cells expressing hTRPML1); conditions: read-out: Human TRPML1: EC50, fluorescent calcium assay, doxycycline-induced hTRPML1
Method: Example 27. Fluorescent TRPML Assays
(§1) HEK-293 Trex cells were stably transfected with a construct consisting of the human coding sequence for TRPML1 cloned into the tet-inducible plasmid pCDNA5 T/O. Mutations were introduced into the TRPML1 sequence to facilitate expression on the cell surface (Silvia Vergarajauregui, Rosa Puertollano Traffic. 2006 March; 7(3): 337-353). Briefly, the cells are cultured in 150 mm round tissue culture dishes containing 20 mL of media. The day before the assay the cells are rinsed with DPBS-Ca-Mg and then treated briefly with Trypsin-EDTA. The Trypsin-EDTA is diluted with growth media, and cells are counted. […]
(§2) 50 microliters of dye-loaded cells are dispensed into each well of the compound assay plate created above. The fluorescence in each well is then determined with an excitation wavelength of 480 nm and an emission wavelength of 540 nm using either a Molecular Devices SpectraMax multimode plate reader or a Hamamatsu FDSS/uCell plate imager.
The resulting fluorescence for each well is exported as an ascii file and loaded into our LIMS for analysis. The percent activity of each compound at each concentration is determined by comparison to the positive and negative control wells included in each plate.
(§3) EC50 values were calculated using a non-linear regression of Prism. […]

[2] = molecular target: Human TRPML2 (Homo sapiens, UniProt Q8IZK6); test: Fluorescent TRPML2 assay (as for TRPML1); conditions: read-out: Human TRPML2: EC50; fluorescent calcium assay as for TRPML1, TRPML2 subtype
Method: as §1, §2
(§4) The resulting fluorescence for each well is exported as an ascii file and loaded into our LIMS for analysis. The percent activity of each compound at each concentration is determined by comparison to the positive and negative control wells included in each plate. […]
as §3

[3] = molecular target: Human TRPML3 (Homo sapiens, UniProt Q8TDD5); test: Fluorescent TRPML3 assay (as for TRPML1); conditions: read-out: Human TRPML3: EC50; fluorescent calcium assay as for TRPML1, TRPML3 subtype
Method: as §1, §2, §4, §3

- EC50 [1]: 100 to 500 nM
- EC50 [2]: 500 to 2000 nM
- EC50 [3]: 500 to 2000 nM
Structure (SMILES): C[C@@H]1CN(c2ncnc3c2c(-c2ccccc2)cn3-c2cc(OC(F)(F)F)ccn2)[C@@H](C)CN1C(=O)C(C)(C)O
